From PubChem BioAssay AID651768 (National Center for Advancing Translational Sciences (NCATS), 2012)
The list shows a part of the results, in another mix than the full data. The source made the active and inactive calls. Calls follow the shape of the dose curve; as a rule, active = well fitted inhibition curve with a large enough effect; inconclusive = small, poorly fitted or top-dose-only effect; inactive = no such curve, though single readings can be large or run the other way.

Protein sequences, listed by entry. Tags and fused reporters are not part of them.
UniProt Q14191, whole entry, looked up: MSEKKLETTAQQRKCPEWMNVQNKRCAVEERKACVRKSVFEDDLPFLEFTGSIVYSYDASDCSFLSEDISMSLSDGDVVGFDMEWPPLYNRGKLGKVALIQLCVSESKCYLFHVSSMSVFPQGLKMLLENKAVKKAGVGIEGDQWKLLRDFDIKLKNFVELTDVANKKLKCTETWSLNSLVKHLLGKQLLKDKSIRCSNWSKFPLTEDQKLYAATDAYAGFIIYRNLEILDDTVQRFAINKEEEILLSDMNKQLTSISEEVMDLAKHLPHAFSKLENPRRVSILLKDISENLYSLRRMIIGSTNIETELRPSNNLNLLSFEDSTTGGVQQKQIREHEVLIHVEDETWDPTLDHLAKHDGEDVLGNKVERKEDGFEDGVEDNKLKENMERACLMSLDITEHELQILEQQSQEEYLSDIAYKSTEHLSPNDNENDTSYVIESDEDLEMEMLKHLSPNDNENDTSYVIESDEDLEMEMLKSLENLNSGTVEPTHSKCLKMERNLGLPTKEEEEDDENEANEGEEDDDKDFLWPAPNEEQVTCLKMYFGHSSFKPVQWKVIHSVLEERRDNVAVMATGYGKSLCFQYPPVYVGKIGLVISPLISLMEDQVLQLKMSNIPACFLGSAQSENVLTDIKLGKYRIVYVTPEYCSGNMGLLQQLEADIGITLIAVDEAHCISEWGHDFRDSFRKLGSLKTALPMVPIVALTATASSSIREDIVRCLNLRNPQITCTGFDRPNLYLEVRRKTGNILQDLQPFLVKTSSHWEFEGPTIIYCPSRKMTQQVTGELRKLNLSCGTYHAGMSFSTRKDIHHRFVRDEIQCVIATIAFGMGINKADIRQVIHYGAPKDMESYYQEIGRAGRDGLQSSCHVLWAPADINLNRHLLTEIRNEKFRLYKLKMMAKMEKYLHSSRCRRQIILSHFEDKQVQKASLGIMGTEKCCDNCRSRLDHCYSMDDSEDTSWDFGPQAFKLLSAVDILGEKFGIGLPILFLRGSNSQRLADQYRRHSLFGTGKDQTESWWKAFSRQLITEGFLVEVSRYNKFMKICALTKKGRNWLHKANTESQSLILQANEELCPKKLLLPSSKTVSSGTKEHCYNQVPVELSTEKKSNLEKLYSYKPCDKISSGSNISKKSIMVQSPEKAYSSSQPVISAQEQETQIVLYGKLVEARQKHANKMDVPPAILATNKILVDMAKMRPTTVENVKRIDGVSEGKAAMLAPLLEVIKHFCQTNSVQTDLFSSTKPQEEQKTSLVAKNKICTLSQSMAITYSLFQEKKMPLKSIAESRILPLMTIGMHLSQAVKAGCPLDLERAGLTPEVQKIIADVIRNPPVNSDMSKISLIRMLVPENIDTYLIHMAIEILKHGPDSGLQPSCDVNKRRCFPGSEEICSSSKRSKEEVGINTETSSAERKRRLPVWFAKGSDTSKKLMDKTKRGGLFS

These compounds were tested against Bifunctional 3'-5' exonuclease/ATP-dependent helicase WRN (Homo sapiens) (UniProt Q14191) (assay: qHTS for Inhibitors of WRN Helicase). Settings: WRN helicase unwinding, fluorescent forked duplex, kinetic; series mostly up to 114 µM; activity change, negative = inhibition: at the top concentration.
In short: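 Kinetic red-fluorescence monitoring (525/598 nm) tracks WRN helicase activity after 100 nM fluorophore-quencher forked duplex and 2 mM ATP are added to 20 nM enzyme pretreated 15 min at room temperature with compound.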
% is scaled to controls: 0 for no effect and ±100 for the full control effect; potency is read from the fitted curve at half-maximal effect.
Also: nearly all actives have a fitted effect of over 55% in size.

| Structure (SMILES) | activity change, negative = inhibition | Potency |
| --- | --- | --- |
| O=[N+]([O-])c1ccc(Nc2ccc(Oc3ccc([N+](=O)[O-])cc3[N+](=O)[O-])cc2)c([N+](=O)[O-])c1 | inactive: -1.97% | – |
| O=P(Nc1ccccn1)(c1cccc2ccccc12)c1cccc2ccccc12 | inactive: -6.06% | – |
| Cc1cc(SC(NC=O)C(Cl)(Cl)Cl)ncn1 (stereo not drawn) | – | active: 50.1 µM |
| COP1(=S)c2c(C)nn(CCC#N)c2N=C(c2ccc(F)cc2)N1C (stereo not drawn) | inactive: 1.79% | – |
| COC(=O)C1(C)COP(=O)(N2CCCC2)OC1 (stereo not drawn) | inactive: 2.92% [at 57.1 µM] | – |
| O=C(COc1ccccc1)OC1CN2CCC1CC2 (stereo not drawn) | inactive: 0.36% | – |
| O=C(Nc1ccncc1[N+](=O)[O-])c1ccc([N+](=O)[O-])cc1[N+](=O)[O-] | inactive: 1.04% | – |
| O=C(O)C(=O)c1ccc(N(CCCl)CCCl)cc1 | inactive: 2.04% | – |
| CCOC(=O)c1ccc(NC(=O)C(C)(CCl)SC)cc1 (stereo not drawn) | inactive: -6.3% | – |
| O=C(OC1CN2CCC1CC2)c1cccc([N+](=O)[O-])c1 (stereo not drawn) | inactive: 2.91% | – |
| CSc1ccc(Nc2c([N+](=O)[O-])cc([N+](=O)[O-])cc2[N+](=O)[O-])cc1 | inactive: -5.85% | – |
| CCC(C)N(CC(C)C)C(=S)SC(NC(C)=O)C(Cl)(Cl)Cl (stereo not drawn) | inactive: -5.31% | – |
| COc1ccc(C2=NCC(CBr)S2)cc1 (stereo not drawn) | inactive: -15.4% | – |
| O=[N+]([O-])c1cccc2n[nH]nc12 | inactive: 8.93% | – |
| CC(=O)N1C2C3N(C(C)=O)C1C1N(C(C)=O)C(C(N1C(C)=O)N3C(C)=O)N2C(C)=O | inactive: 3.39% | – |
| Cc1ccc(NP(=O)(Oc2ccccc2)Oc2ccccc2)nc1 | inactive: -2.03% [at 57.1 µM] | – |
| CCc1nc2c(n1)c1c(non1O)c1c2no[n+]1[O-] | inactive: -11.2% [at 57.1 µM] | – |
| O=[N+]([O-])c1cc([N+](=O)[O-])c(CCNc2ccccc2)c([N+](=O)[O-])c1 | inactive: -14% | – |
| Nc1ccc([As](=O)(O)c2ccc(N)cc2)cc1 | inactive: 2.84% | – |
| CCN(/C(=N/P(=O)(N1CCOCC1)N1CCOCC1)N1CCOCC1)c1ccc(OC)cc1 | inactive: -27.5% [at 57.1 µM] | – |
| CC(C)=N/N=C(\N)N[N+](=O)[O-] | inactive: -7.35% | – |
| CC(C)c1nc(Nc2ccccc2)n(P(=O)(N(C)C)N(C)C)n1 | inactive: 2.02% | – |
| CN(C)C(=O)OCCc1n(C)cc[n+]1C | inactive: -0.574% | – |
| c1cc(-c2nn[nH]n2)ccc1-c1nn[nH]n1 | inactive: 4.28% | – |

| Structure (SMILES) | activity change, negative = inhibition | Potency |
| --- | --- | --- |
| CC1CCN(C(=O)Oc2c(Cl)cc(Cl)c3cccnc23)CC1 | inactive: -3.16% | – |
| O=P1(N(CCCl)CCCl)OCCCS1 (stereo not drawn) | inactive: -1.49% | – |
| O=C(Nc1cc([As](=O)(O)O)ccc1O)c1ccccc1 | inactive: -3.96% | – |
| CC(C)(C)C(=O)NC(Sc1ccncn1)C(Cl)(Cl)Cl (stereo not drawn) | inactive: -12.3% | – |
| O=[N+]([O-])c1ncn(CCn2ncnc2[N+](=O)[O-])n1 | inactive: -5.17% | – |
| O=[N+]([O-])c1cccc(NC2=NCC(CBr)S2)c1 (stereo not drawn) | inactive: 3.27% | – |
| COC(=O)C1(C)COP(=O)(Nc2ccccc2)OC1 (stereo not drawn) | inactive: -0.489% | – |
| O=C(O)CNc1ccc([As](=O)(O)O)cc1 | inactive: 1.79% | – |
| O=C(O)c1ccccc1[As](=O)(O)O | inactive: 10.9% | – |
| CC(=O)Nc1ccc([As](=O)(O)O)cc1 | inactive: 5.13% | – |
| CCCC1OP(N)(=O)OCC1CC (stereo not drawn) | inactive: 4.2% | – |
| CN(C)P(=O)(N(C)C)n1c(Nc2ccccc2)nnc1-c1ccccc1 | inactive: -4.85% | – |
| O=P(Nc1nc2ccc(Cl)cc2s1)(c1ccccc1)c1ccccc1 | inactive: -8.36% | – |
| CCOP(=O)(Nc1ccccc1)OCC | inactive: 6.79% | – |
| Cc1cc(SC(NC(=O)c2ccc(F)cc2)C(Cl)(Cl)Cl)ncn1 (stereo not drawn) | – | active: 56.2 µM |
| Cc1ccc(NP(=O)(Oc2ccccc2F)Oc2ccccc2F)nc1 | inactive: -1.4% | – |
| CN(C(=O)Cc1ccc(Cl)c(Cl)c1)[C@H]1CCCC[C@@H]1N1CCCC1 | inactive: -4.5% | – |
| CCN(N=Nc1nonc1N)c1nonc1N | inactive: -5.74% | – |
| Nc1cccc2ccc([As](=O)(O)O)cc12 | inactive: 10.2% | – |
| NC(=O)c1cc([N+](=O)[O-])cc([N+](=O)[O-])c1N | inactive: -2.74% | – |
| Cc1ccc(N/C(=N/P(=O)(N2CCOCC2)N2CCOCC2)N2CCOCC2)cc1 | inactive: 3.23% | – |
| COc1ccccc1OP(=O)(Nc1ccc(C)cn1)Oc1ccccc1OC | inactive: 8.35% | – |
| Cc1ccc(OP(=O)(Nc2nccs2)Oc2ccc(C)cc2)cc1 | inactive: -19.6% | – |
| Clc1ccc(Cl)c(NC2=NCC(CBr)S2)c1 (stereo not drawn) | inactive: -5.37% | – |

| Structure (SMILES) | activity change, negative = inhibition | Potency |
| --- | --- | --- |
| CN1CCCC(OC(=O)C(c2ccccc2)c2ccccc2)C1 (stereo not drawn) | inactive: 0.199% [at 57.1 µM] | – |
| CC(C)CC(=O)NC(Sc1ccc(Cl)cc1)C(Cl)(Cl)Cl (stereo not drawn) | inactive: -5.35% [at 57.1 µM] | – |
| Nc1cc(N)c2nonc2c1[N+](=O)[O-] | inactive: -31.4% | – |
| Oc1ccccc1CNc1ccccn1 | inactive: -11.8% | – |
| O=[N+]([O-])C1C(O)C(O)C([N+](=O)[O-])C(O)C1O (stereo not drawn) | inactive: -5.13% | – |
| O=P1(Nc2nc3ccc(Cl)cc3s2)COc2ccccc2O1 (stereo not drawn) | inactive: 5.6% | – |
| CCOc1ccc(C2=NCC(CBr)S2)cc1 (stereo not drawn) | inactive: 2.83% | – |
| CCc1cc(O)c([N+](=O)[O-])c(C)c1[N+](=O)[O-] | inactive: -9.42% | – |
| CC(C)(C)C(=O)NC(Sc1ccccc1)C(Cl)(Cl)Cl (stereo not drawn) | inactive: 2.08% | – |
| CC(=O)c1ccc(N2CC2c2ccncc2)cc1 (stereo not drawn) | inactive: 3.24% | – |
| COC(=O)C1(C)COP(=O)(NCc2ccccc2)OC1 (stereo not drawn) | inactive: 6.51% | – |
| Cc1ccccc1CN(C)C(=O)COC(=O)C(O)(c1ccccc1)c1ccccc1 | inactive: -10.6% | – |
| C[C@@H]1C=CCP(=O)(Oc2ccccc2)O1 (stereo partly drawn) | inactive: 5.17% | – |
| C[C@H]1OP(=O)(Oc2ccccc2)C[C@@H]2O[C@@H]21 (stereo partly drawn) | inactive: 0.353% | – |
| CC(=O)Nc1ccc([As](=O)(O)O)c(O)c1 | inactive: 1.93% | – |
| CC(=O)Nc1ccc(Oc2c([N+](=O)[O-])cc([N+](=O)[O-])cc2[N+](=O)[O-])cc1 | inactive: -1.38% | – |
| CCNC(=S)/N=C(\N)N[N+](=O)[O-] | inactive: 2.11% | – |
| O=C(NC1CCS(=O)(=O)C1)NP(=S)(Oc1ccccc1)Oc1ccccc1 (stereo not drawn) | inactive: -0.129% [at 57.1 µM] | – |
| c1ccc(-c2nn[nH]n2)c(-c2nn[nH]n2)c1 | inactive: -24.3% | – |
| Cc1ccc(NP(=O)(Oc2cccc(C)c2)Oc2cccc(C)c2)nc1 | inactive: 2.66% | – |
| O=P1(N(CCCl)CCCl)OCCC2CCCCN21 (stereo not drawn) | inactive: 1.51% | – |
| COC(=O)c1cc2c(s1)N=C(c1ccccc1)N(C)P2(=O)N1CCOCC1 (stereo not drawn) | inactive: 6.29% | – |
| Cc1ccc(OP(=O)(Nc2ccccn2)Oc2ccc(C)cc2)cc1 | inactive: -1.34% [at 57.1 µM] | – |
| CC(=O)NC(SC(=S)N(CC(C)C)CC(C)C)C(Cl)(Cl)Cl (stereo not drawn) | inactive: -14.7% [at 57.1 µM] | – |

| Structure (SMILES) | activity change, negative = inhibition | Potency |
| --- | --- | --- |
| O=C(OC1CN2CCC1CC2)c1ccccc1 (stereo not drawn) | inactive: -7.33% | – |
| CCC(=O)N1C2C3N(C(=O)CC)C1C1N(C(=O)CC)C(C(N1C(=O)CC)N3C(=O)CC)N2C(=O)CC | inactive: 5.96% | – |
| Cc1ccccc1OP(=O)(Nc1ccccn1)Oc1ccccc1C | inactive: -21.2% | – |
| CC(NC(=O)COC(=O)C(O)(c1ccccc1)c1ccccc1)c1ccccc1 (stereo not drawn) | inactive: 0.403% | – |
| CN(C)C(=O)Oc1noc2ccccc12 | inactive: -3.67% | – |
| Nc1ccc(CCCCOc2ccccc2)cc1 | inactive: 3.85% [at 57.1 µM] | – |
| COc1ccc(N)c([N+](=O)[O-])c1[N+](=O)[O-] | inactive: -24.1% | – |
| O=P(Nc1ccccn1)(c1ccc(Br)cc1)c1ccc(Br)cc1 | inactive: -1.65% | – |
| CN(C)C1(CNC(=O)c2ccc(Cl)c(S(N)(=O)=O)c2)CCCCC1 | inactive: 6.07% | – |
| O=P(Nc1nc2ccccc2s1)(c1ccccc1)c1ccccc1 | inactive: -8.62% | – |
| C[C@H]1OP(=O)(Oc2ccccc2)[C@H](O)[C@H](O)[C@H]1N=[N+]=[N-] (stereo partly drawn) | inactive: 3.19% | – |
| O=[N+]([O-])c1ccc(O)c(/C=N/Nc2ccc([N+](=O)[O-])cc2[N+](=O)[O-])c1 | inactive: -14.1% | – |
| O=[N+]([O-])c1ncn(CCn2cnc([N+](=O)[O-])n2)n1 | inactive: 8.92% | – |
| CC(=O)NC(SC(=S)N(C)C)C(Cl)(Cl)Cl (stereo not drawn) | inactive: -9.27% | – |
| O=[As](O)(c1ccccc1)c1ccc(O)cc1 | inactive: -2.61% | – |
| Nc1ccc([As](=O)(O)c2ccc([N+](=O)[O-])cc2)cc1 | inactive: -6.75% | – |
| C(Cc1nn[nH]n1)Cc1nn[nH]n1 | inactive: 0.472% | – |
| O=C(OC1CN2CCC1CC2)c1cccc(Cl)c1 (stereo not drawn) | inactive: 9.95% | – |
| CC(C)C(=O)NC(Sc1ccccc1)C(Cl)(Cl)Cl (stereo not drawn) | inactive: -3.09% | – |
| O=P(Nc1nccs1)(c1ccccc1)c1ccccc1 | inactive: 4.3% | – |
| c1nnnn1CCn1cnnn1 | inactive: 0.34% | – |
